Reference: patent US6787149B1 (El Khoury and Stein Ltd., priority 2000, dated 2004)

Test system: intraarticular opioid receptors
Experiment: Intraarticular injection after arthroscopic surgery of the knee
Format: in vivo, human
Details: also reported in Stein et al. 1991, Khoury et al. 1992

## CN1CC[C@]23c4c5ccc(O)c4O[C@H]2[C@@H](O)C=C[C@H]3[C@H]1C5.O=S(=O)(O)O [Morphine, morphine sulfate]
  Pain relief, injection into the joint versus same dose intravenously: significantly more pain relief
